The numbers were not newly measured in patent publication US20190133903A1, “Oral Compositions Containing Zinc, Stannous and Fluoride Ion Sources” (Colgate-Palmolive Company, priority 2014, published 2019), which cites them from elsewhere.

Read-outs that look alike come from different tables or passages of the source.

On to Stannous Fluoride, for which the Solubility is 31 g/100mL (0° C.) and 35 g/100 mL (20° C.).
